Here are results for eleven compounds from ChEMBL document CHEMBL6087444, “Synthesis and Evaluation of Halogenated Pralidoximes in Reactivation of Organophosphate-Inhibited Cholinesterases” (2024).

Chains of the proteins cited; added tags and fusions are not shown. Residues count along the entry.
UniProt P22303, 32-614 limits assumed: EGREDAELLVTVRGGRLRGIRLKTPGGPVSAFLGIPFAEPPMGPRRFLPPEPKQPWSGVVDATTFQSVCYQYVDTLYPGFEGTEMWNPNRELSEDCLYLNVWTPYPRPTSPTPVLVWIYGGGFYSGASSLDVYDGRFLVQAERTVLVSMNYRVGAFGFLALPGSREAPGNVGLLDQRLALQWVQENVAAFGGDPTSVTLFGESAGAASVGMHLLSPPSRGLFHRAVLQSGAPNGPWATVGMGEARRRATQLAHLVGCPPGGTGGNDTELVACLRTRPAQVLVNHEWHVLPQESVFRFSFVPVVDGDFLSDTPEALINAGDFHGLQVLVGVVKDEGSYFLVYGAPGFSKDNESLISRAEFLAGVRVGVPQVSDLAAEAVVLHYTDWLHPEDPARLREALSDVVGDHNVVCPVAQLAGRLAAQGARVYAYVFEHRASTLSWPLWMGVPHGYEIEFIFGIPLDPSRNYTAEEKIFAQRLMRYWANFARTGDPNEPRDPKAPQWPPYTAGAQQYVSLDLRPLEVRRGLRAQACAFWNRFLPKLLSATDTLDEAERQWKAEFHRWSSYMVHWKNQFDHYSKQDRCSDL

Series [1] can be described thus: Stability if the compound in PBS buffer at pH 7.4 at 1 mg/ml measured upto 8 hrs by UHPLC analysis. To be noted: pH 7.4, 8 h.
Series [2] can be described thus: Dissociation constant, pKa of the compound by spectrophotometric analysis.
Series [3] is described as follows: Stability if the compound in deionized water at 1 mg/ml measured upto 8 hrs by UHPLC analysis. To be noted: buffer.
A further series deals with Acetylcholinesterase (Homo sapiens, UniProt P22303). The series can be described thus: Inhibition of human recombinant AChE using acetylthiocholine iodide as substrate by Ellman's method. For orientation: Ellman's reagent forms a yellow product with free thiols.

In turn, `C[n+]1ccc(F)cc1/C=N/O.O=S(=O)([O-])C(F)(F)F` returned a Stability in series [1] of 70%.
A word on the pKa: it is the pH at which an ionisable group is half protonated. Low readings indicate a stronger acid or weaker base, high ones a weaker acid or stronger base. Take `C[n+]1cc(Cl)ccc1/C=N/O.[I-]`: the pKa in series [2] turned out to be 7.8. Besides, the Stability result in series [1] and in series [3] was “Stable” throughout.
The IC50 is the midpoint of a concentration-inhibition curve. On to `C[n+]1cc(Br)ccc1/C=N/O`, for which, at Acetylcholinesterase, the half-maximal inhibitory concentration (IC50) turned out to be 58.5 µM.
Regarding `C[n+]1cccc(Cl)c1/C=N/O.[I-]`, the pKa in series [2] was 7.97. In addition, the Stability entry in series [1] and in series [3] was “Unstable” throughout.
Take `C[n+]1c(Cl)cccc1/C=N/O.O=S(=O)([O-])C(F)(F)F`: the Stability result in series [1] is “Unstable”.
Still for that read-out and setting: the result for `C[n+]1ccc(Br)cc1/C=N/O.O=S(=O)([O-])C(F)(F)F` reads under 20%.
With `C[n+]1cccc(Br)c1/C=N/O.[I-]`, the pKa in series [2] came to 8.1. Also, the Stability result in series [1] and in series [3] was “Unstable” each time.
On to `C[n+]1cc(F)ccc1/C=N/O.[I-]`, for which the pKa in series [2] was 7.95. Further, the Stability entry in series [1] and in series [3] was “Stable” each time.
As for `C[n+]1ccc(Cl)cc1/C=N/O.O=S(=O)([O-])C(F)(F)F`, the Stability in series [1] is under 20%.
`C[n+]1cc(Br)ccc1/C=N/O.[I-]` had a pKa in series [2] of 7.9. The Stability result in series [1] and in series [3] was “Stable” each time.
Consider `C[n+]1cccc(F)c1/C=N/O.[I-]`, for which, in series [2], the pKa is 8.04. The Stability entry in series [1] and in series [3] was “Unstable” throughout.
